# Assay results published in ChEMBL document CHEMBL1125721, “Highly selective kappa opioid analgesics. 4. Synthesis of some conformationally restricted naphthalene derivatives with high receptor affinity and selectivity” (1991).
# By UniProt entry, the sequences of proteins in these tests, tags left out.
# UniProt P41144, whole entry: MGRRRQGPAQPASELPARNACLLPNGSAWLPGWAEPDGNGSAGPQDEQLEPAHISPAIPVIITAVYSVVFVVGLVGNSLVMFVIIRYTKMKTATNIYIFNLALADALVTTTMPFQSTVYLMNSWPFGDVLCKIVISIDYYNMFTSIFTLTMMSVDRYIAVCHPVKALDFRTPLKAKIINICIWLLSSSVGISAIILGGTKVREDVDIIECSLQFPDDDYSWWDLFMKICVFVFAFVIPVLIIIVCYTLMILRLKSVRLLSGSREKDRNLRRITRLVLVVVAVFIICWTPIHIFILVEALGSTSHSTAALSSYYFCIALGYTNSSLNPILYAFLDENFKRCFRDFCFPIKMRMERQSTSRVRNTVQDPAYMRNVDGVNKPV
# Where “and” joins values, the source holds several entries; their conditions need not be identical. Equal values may be shown once.
# Molecular target: Kappa-type opioid receptor (Cavia porcellus) (UniProt P41144)
# Test: Ratio measured as the Ki(kappa) to that of Ki(mu) values.
row,Compound,Ratio
1,CN(C(=O)C1CCc2c(Br)sc3cccc1c23)[C@H]1CCC2(CCCO2)C[C@@H]1N1CCCC1 (stereo partly drawn),16 and 14
2,CC(C(=O)N(C)[C@H]1CCCC[C@@H]1N1CCCC1)c1cccc2sccc12 (stereo partly drawn),14
3,CC1c2cccc3cccc(c23)C1C(=O)N(C)[C@H]1CCC2(CCCO2)C[C@@H]1N1CCCC1 (stereo partly drawn),659
